Our source for the pKa, Bmax and Kd values is ChEMBL document CHEMBL5338767, “A Molecular Toolbox of Positron Emission Tomography Tracers for General Anesthesia Mechanism Research” (J Med Chem, 2023).

The nature of data set [1]: Dissociation constant, pKa of the compound. It counts as physicochemical.
Data set [2] can be described thus: Drug distribution in human brain assessed as maximum binding.
The nature of data set [3]: Drug distribution in human cerebellum assessed as maximum binding.
Data set [4] can be described thus: Drug distribution in human brain assessed as dissociation constant.
Data set [5] is described as follows: Drug distribution in human frontal cortex assessed as maximum binding.
Data set [6] in a line: Drug distribution in human caudate nucleus assessed as maximum binding.
Data set [7] can be described thus: Drug distribution in human temporal cortex assessed as maximum binding.
Data set [8] in a line: Drug distribution in human parietal cortex assessed as maximum binding.
Data set [9] is described as follows: Drug distribution in human cingulate cortex assessed as maximum binding.
Data set [10] can be described thus: Drug distribution in human cerebellum assessed as dissociation constant.
Data set [11] in a line: Drug distribution in human occipital cortex assessed as maximum binding.
A short description of data set [12]: Drug distribution in human frontal cortex assessed as dissociation constant.
The nature of data set [13]: Drug distribution in human caudate nucleus assessed as dissociation constant.
The nature of data set [14]: Drug distribution in human temporal cortex assessed as dissociation constant.
Data set [15] in a line: Drug distribution in human parietal cortex assessed as dissociation constant.
Data set [16] in a line: Drug distribution in human cingulate cortex assessed as dissociation constant.
Data set [17] can be described thus: Drug distribution in human occipital cortex assessed as dissociation constant.

For orientation: pKa means the negative logarithm of the acid dissociation constant. A higher pKa goes with a group that holds its proton tightly. A word on the Kd: it is the constant that tells how readily two partners part at equilibrium. The molecule `CC(C)(O)[C@H]1C[C@@]23CC[C@]1(O[11CH3])[C@@H]1Oc4c(O)ccc5c4[C@@]12CCN(CC1CC1)[C@@H]3C5` came in with a pKa in [1] of 9.48. Moreover, the Bmax came to 18.6 nM in data set [2]; 6.8 nM in [3]; 13.1 nM in [5]; 19.9 nM in data set [6]; 13.4 nM in data set [7]; 12 nM in [8]. The Bmax is 20.5 nM in data set [9] and 2.3 nM in data set [11]. In addition, the Kd in data set [4] turned out to be 0.73 nM; in data set [10], 0.69 nM; in data set [12], 0.68 nM; in data set [13], 1.16 nM; in data set [14], 0.86 nM; in data set [15] it was 0.76 nM. Moreover, the Kd in data set [16] was 1.06 nM; in [17] it was 0.88 nM.
